# Antibody variant affinities, Ab-14 light chain, assay 1

Reference: Engelhart et al. 2022, doi:10.1038/s41597-022-01779-4. File: FLAb, binding data.

Target peptide (SARS-CoV-2 spike, HR2 region): PDVDLGDISGINAS

Each scFv is VH, a (GGGGS)3 linker, VL, as in the parent Ab-14, and differs from it in the CDRs of the light chain only.
VH: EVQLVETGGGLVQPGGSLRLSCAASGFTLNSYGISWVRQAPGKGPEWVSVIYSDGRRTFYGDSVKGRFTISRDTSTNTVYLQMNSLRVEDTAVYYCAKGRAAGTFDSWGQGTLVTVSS
VL: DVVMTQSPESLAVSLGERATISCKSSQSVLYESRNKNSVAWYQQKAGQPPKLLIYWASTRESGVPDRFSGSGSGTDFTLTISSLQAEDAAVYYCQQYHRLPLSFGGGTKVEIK

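Library AAYL50 holds single substitutions and randomly drawn double and triple substitutions in the CDRs. The assay is AlphaSeq: two haploid yeast populations carry antibody and antigen on their surface. The frequency of each diploid, read from paired DNA barcodes, reflects how well the two displayed proteins bind. Scores were corrected for input abundance and mapped to Kd with protein pairs of known affinity run in the same pool. Each pool was mated in three replicate cultures.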

Substitutions are numbered in sequence along the VL above, starting at 1 (not Kabat).
All variants listed here change Y97 of the VL, counted from its first residue.
Kd is apparent (estimated from mating counts) and averaged on the log scale over replicates with a signal. Smaller is tighter.
"no signal" means that the variant was in the library but no mating with the target was seen in any replicate; the authors take this as a sign of poor binding, and no number exists.
As a blank, each scFv also met three strains without target: over library AAYL50, 18% of these pairings were detected, typically at 15 µM and seldom below 970 nM.

* S25H/Y97C/S103V -> no signal (0 of 3 replicates)
* Y31Q/K36C/Y97M -> 4.2 nM (3 of 3 replicates)
* S26V/S38A/Y97N -> 360 nM (3 of 3 replicates)
* S25N/Y97R -> 81 µM (1 of 3 replicates)
* A57W/Y97D/H98T -> 34 µM (1 of 3 replicates)
* K24G/W56N/Y97N -> 16 nM (3 of 3 replicates)
* L30Q/E61V/Y97D -> 50 µM (2 of 3 replicates)
* S38M/A40D/Y97T -> 130 µM (3 of 3 replicates)
* S26W/Q96M/Y97V -> 200 nM (3 of 3 replicates)
* S62T/Y97H/L100C -> 25 µM (2 of 3 replicates)
* S33A/Y97D/P101R -> 54 nM (3 of 3 replicates)
* V29E/Y97G -> 8.6 nM (3 of 3 replicates)
* K24F/S38R/Y97D -> 3.1 µM (3 of 3 replicates)
* S26P/Y97M/L100A -> 740 nM (3 of 3 replicates)
* Y31M/Y97K/S103N -> 17 nM (3 of 3 replicates)
* R60W/Q96M/Y97R -> no signal (0 of 3 replicates)
* S28W/Y97M/P101A -> 270 nM (3 of 3 replicates)
* Y97F/H98G/L102N -> 180 µM (2 of 3 replicates)
* K36A/A57V/Y97K -> 1.1 µM (3 of 3 replicates)
* K24A/Y97L/H98A -> no signal (0 of 3 replicates)
* S38R/Y97P/S103P -> no signal (0 of 3 replicates)
* W56R/S58C/Y97R -> no signal (0 of 3 replicates)
* K36I/S38N/Y97R -> 68 nM (3 of 3 replicates)
* S58C/Y97P/S103Q -> 41 µM (3 of 3 replicates)
* Q27W/Q96A/Y97H -> no signal (0 of 3 replicates)
* S25G/E32C/Y97R -> no signal (0 of 3 replicates)
* S33D/S38A/Y97V -> no signal (0 of 3 replicates)
* S62G/Q96E/Y97K -> 11 nM (3 of 3 replicates)
* S38Q/E61S/Y97G -> no signal (0 of 3 replicates)
* K36Y/Q96W/Y97K -> no signal (0 of 3 replicates)
* Q27I/V39H/Y97G -> 40 µM (2 of 3 replicates)
* W56C/Y97Q -> no signal (0 of 3 replicates)
* Q27F/N35T/Y97I -> no signal (0 of 3 replicates)
* E32T/E61C/Y97A -> 4.6 µM (2 of 3 replicates)
* S33M/Y97C -> 25 µM (3 of 3 replicates)
* K36Y/Y97Q -> no signal (0 of 3 replicates)
* R34E/E61P/Y97P -> 2.4 nM (3 of 3 replicates)
* A57K/Q96W/Y97I -> no signal (0 of 3 replicates)
* Q95T/Q96W/Y97G -> 970 nM (3 of 3 replicates)
* E32D/Y97V/H98W -> no signal (0 of 3 replicates)
* Q27I/Y97I/L102I -> 9.6 µM (1 of 3 replicates)
* A40H/S62F/Y97G -> no signal (0 of 3 replicates)
* Q27V/S33N/Y97I -> 3.4 nM (3 of 3 replicates)
* V39G/A40W/Y97T -> 160 µM (3 of 3 replicates)
* Q96D/Y97C/L102D -> no signal (0 of 3 replicates)
* S25F/V39S/Y97D -> no signal (0 of 3 replicates)
* N35S/Y97H/S103K -> 21 µM (1 of 3 replicates)
* V39E/Y97L/R99A -> 1.2 µM (1 of 3 replicates)
* E32R/S38M/Y97E -> no signal (0 of 3 replicates)
* N37T/E61G/Y97E -> 17 µM (2 of 3 replicates)
* R60C/Y97Q/L102G -> 31 µM (1 of 3 replicates)

The 8 strongest on average among those seen in every replicate, once more:

{"changes": "R34E/E61P/Y97P", "apparent Kd": "2.4 nM", "detected": "3 of 3"}
{"changes": "Q27V/S33N/Y97I", "apparent Kd": "3.4 nM", "detected": "3 of 3"}
{"changes": "Y31Q/K36C/Y97M", "apparent Kd": "4.2 nM", "detected": "3 of 3"}
{"changes": "V29E/Y97G", "apparent Kd": "8.6 nM", "detected": "3 of 3"}
{"changes": "S62G/Q96E/Y97K", "apparent Kd": "11 nM", "detected": "3 of 3"}
{"changes": "K24G/W56N/Y97N", "apparent Kd": "16 nM", "detected": "3 of 3"}
{"changes": "Y31M/Y97K/S103N", "apparent Kd": "17 nM", "detected": "3 of 3"}
{"changes": "S33A/Y97D/P101R", "apparent Kd": "54 nM", "detected": "3 of 3"}